In paper PMC3683333, “^11C-LY2428703, a positron emission tomographic radioligand for the metabotropic glutamate receptor 1, is unsuitable for imaging in monkey and human brains” (EJNMMI Research, 2013):
“And” between values parts separate entries of the source, which are not always exact repeats. Equal entries are not always repeated.

Sequences of proteins named here, by UniProt entry; tags and fusion partners are left off. Residues count along the entry.
UniProt P23385, 19-1199 limits assumed: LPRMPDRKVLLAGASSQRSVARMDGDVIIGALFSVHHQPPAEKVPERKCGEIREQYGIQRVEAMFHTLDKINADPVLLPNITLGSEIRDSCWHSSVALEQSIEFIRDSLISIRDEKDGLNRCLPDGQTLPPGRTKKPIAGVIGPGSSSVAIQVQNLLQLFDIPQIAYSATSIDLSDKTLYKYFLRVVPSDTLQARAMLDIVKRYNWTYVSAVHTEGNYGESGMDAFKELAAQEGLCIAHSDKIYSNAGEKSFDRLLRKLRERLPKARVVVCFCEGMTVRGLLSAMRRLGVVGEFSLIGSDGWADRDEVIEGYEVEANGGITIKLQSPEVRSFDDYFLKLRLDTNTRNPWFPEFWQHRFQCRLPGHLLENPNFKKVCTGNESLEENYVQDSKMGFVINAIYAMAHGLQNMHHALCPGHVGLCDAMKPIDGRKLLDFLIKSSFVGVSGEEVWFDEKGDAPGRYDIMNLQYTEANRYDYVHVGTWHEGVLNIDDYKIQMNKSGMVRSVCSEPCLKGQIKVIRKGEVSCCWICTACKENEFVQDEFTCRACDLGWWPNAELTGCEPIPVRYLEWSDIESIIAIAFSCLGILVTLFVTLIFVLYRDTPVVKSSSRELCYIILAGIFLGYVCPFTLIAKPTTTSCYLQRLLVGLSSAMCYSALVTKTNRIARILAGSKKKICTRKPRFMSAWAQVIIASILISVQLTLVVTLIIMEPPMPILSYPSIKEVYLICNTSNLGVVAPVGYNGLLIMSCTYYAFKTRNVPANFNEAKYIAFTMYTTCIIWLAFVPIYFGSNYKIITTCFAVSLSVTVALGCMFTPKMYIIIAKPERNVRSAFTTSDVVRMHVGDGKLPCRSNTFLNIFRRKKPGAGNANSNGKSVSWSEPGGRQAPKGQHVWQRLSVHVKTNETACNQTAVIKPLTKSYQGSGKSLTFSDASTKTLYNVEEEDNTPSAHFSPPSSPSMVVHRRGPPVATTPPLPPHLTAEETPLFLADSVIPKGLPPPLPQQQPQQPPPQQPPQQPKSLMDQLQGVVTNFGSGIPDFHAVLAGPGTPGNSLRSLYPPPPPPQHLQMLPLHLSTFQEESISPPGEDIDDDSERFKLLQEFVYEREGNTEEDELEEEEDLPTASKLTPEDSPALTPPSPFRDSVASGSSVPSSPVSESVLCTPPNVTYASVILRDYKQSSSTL
UniProt I2CU04, 19-1195 limits assumed: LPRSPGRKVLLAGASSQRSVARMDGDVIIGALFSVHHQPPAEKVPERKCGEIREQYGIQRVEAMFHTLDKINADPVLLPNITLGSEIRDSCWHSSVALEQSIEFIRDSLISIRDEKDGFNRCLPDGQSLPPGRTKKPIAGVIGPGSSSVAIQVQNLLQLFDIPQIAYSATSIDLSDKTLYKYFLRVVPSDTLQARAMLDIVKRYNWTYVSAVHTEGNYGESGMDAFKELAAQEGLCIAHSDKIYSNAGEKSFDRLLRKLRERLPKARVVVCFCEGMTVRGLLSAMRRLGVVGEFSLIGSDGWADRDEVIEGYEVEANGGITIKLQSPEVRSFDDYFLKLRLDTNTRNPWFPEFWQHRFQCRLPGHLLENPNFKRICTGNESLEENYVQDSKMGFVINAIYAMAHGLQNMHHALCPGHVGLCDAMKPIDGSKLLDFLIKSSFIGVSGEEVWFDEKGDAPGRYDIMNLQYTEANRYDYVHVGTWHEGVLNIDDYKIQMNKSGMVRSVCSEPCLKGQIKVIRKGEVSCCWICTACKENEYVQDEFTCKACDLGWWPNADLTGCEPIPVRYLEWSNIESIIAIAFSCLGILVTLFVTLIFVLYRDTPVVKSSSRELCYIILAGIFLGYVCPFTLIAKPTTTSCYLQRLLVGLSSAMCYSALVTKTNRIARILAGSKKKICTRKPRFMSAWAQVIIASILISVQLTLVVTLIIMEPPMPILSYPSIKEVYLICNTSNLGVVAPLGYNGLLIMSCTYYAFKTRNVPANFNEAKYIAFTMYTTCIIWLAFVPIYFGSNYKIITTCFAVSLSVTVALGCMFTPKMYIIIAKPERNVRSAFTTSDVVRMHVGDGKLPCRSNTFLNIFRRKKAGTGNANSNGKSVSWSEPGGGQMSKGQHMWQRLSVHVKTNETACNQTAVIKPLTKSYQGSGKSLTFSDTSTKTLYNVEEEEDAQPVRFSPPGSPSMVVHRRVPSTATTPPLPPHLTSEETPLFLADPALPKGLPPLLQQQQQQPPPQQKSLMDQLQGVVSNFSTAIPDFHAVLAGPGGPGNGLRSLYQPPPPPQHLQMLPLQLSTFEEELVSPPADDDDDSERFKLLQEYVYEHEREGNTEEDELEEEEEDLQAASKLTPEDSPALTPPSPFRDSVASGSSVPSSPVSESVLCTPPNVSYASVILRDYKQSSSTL
UniProt Q13255, 19-1194 limits assumed: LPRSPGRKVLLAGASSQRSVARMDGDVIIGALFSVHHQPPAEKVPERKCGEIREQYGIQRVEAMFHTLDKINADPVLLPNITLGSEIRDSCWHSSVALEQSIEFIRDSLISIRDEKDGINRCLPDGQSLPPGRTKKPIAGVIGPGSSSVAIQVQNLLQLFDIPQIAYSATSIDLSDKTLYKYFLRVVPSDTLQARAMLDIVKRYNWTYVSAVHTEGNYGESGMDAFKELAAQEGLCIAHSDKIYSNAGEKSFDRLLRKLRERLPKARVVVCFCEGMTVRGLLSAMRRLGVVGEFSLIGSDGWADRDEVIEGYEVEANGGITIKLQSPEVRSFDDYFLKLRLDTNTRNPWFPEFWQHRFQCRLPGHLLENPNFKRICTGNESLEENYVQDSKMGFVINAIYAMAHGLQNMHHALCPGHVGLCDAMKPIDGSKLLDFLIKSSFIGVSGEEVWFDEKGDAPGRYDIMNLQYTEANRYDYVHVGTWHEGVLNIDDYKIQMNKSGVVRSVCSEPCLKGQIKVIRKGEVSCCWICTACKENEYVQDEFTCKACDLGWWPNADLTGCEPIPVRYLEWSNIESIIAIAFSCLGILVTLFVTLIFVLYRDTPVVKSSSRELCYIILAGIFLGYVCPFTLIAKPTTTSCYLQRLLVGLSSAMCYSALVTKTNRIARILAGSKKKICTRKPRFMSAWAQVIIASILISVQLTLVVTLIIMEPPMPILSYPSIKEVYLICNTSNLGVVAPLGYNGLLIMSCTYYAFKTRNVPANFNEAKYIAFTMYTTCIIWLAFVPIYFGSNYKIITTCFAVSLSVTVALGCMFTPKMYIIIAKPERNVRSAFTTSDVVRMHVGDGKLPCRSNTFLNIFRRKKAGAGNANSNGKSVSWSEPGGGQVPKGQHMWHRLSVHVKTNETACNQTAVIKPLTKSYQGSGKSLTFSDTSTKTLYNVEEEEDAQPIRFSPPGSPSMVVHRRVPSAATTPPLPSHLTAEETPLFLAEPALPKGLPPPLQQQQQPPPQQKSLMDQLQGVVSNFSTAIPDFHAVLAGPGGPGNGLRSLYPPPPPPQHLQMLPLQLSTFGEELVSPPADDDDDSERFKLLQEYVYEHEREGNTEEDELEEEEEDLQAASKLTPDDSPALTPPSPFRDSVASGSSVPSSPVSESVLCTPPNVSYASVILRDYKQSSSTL

What was measured:
[1] = target: mGluR1 (Rattus norvegicus, UniProt P23385); assay: Saturation binding assay with [^3H]LY456066, rat cerebellar membranes; conditions: rat cerebellar tissue; tested as the radiolabelled form
[2] = target: mGluR1 (Macaca mulatta, UniProt I2CU04); assay: Saturation binding assay with [^3H]LY456066, monkey cerebellar membranes; conditions: monkey cerebellar tissue; tested as the radiolabelled form
[3] = target: mGluR1 (Homo sapiens, UniProt Q13255); assay: Saturation binding assay with [^3H]LY456066, human cerebellar membranes; conditions: human cerebellar tissue; tested as the radiolabelled form

Bmax [1]: 167 nM and 167 ± 24 (3) nM
Kd [1]: 6.6 nM
Bmax [2]: 120 nM and 120 ± 8.6 (3) nM
Kd [2]: 6.6 nM
Bmax [3]: 186 nM and 186 ± 11.6 (4) nM
Kd [3]: 11 nM
Structure (SMILES): OCCSc1nc2c(c(NC3Cc4ccccc4C3)n1)CCCC2
